Results reported in publication PMC10873626, “Acceleration of infectious disease drug discovery and development using a humanized model of drug metabolism” (Proceedings of the National Academy of Sciences of the …, 2024).

Legend:
[1] = mouse, microsomes
[2] = mouse, microsomes; remark: listed apart in the source
[3] = mouse, microsomes; remark: listed apart in the source

CO[C@H]1/C=C/O[C@@]2(C)Oc3c(C)c(O)c4c(O)c(c(/C=N/N5CCN(C)CC5)c(O)c4c3C2=O)NC(=O)/C(C)=C\C=C\[C@H](C)[C@H](O)[C@@H](C)[C@@H](O)[C@@H](C)[C@H](OC(C)=O)[C@@H]1C [Rifampicin]
0.5 mL/min/g liver: CLint, 8HUM [1] | CLint, WT [2] | CLint, CypC4KO [3]
